# Reference: PubChem BioAssay AID488839 (Broad Institute, 2010)
# Sequences of proteins named here, by UniProt entry; tags and fusion partners are left off. A change or cut given only in a name is not applied to a line headed by its entry.
# UniProt Q00535, whole entry, looked up: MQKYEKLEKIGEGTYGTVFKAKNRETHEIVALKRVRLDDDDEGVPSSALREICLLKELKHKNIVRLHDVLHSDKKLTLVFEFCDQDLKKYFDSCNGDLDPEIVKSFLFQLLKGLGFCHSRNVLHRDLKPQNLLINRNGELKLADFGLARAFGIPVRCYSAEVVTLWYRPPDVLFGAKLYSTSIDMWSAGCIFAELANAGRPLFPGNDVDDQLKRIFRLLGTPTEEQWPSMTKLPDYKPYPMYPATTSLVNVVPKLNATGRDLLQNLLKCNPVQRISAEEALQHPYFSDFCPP
# UniProt Q15078: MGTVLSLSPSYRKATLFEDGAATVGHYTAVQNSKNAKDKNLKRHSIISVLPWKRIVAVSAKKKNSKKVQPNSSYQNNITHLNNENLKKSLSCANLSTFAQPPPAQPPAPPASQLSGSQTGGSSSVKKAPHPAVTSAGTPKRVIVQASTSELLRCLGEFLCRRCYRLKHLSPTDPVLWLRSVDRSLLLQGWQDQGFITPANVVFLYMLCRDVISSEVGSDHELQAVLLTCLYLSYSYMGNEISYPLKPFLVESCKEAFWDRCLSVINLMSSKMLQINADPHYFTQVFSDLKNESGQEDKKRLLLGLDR
# This is one part of the list. The source made the active and inactive calls.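 How the source made its calls: active means highest replicate inhibition of at least 50% and at least 75% of replicates reaching 50%; inconclusive means only one of the two criteria met; inactive means both criteria failed.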
# Target: Cyclin-dependent kinase 5 (Homo sapiens) + Cyclin-dependent kinase 5 activator 1 (Homo sapiens) (UniProt Q00535+Q15078)
# Assay: inhibitors of human CDK5/p35 kinase, primary screen, biochemical, single concentration (AID 488839);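 further: plate controls were DMSO neutral control for no effect and GW8510 at 10 µM for full effect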
# Details: Recombinant CDK5/p35, ADP-Glo luminescence, 60 min; at 10 µM; active compounds read high
row,Structure (SMILES),inhibition
1,O=[N+]([O-])c1cc([N+](=O)[O-])c(-c2ccn[nH]2)s1,inactive: -2.06%
2,CC(C)NC(=O)NP(=O)(Oc1ccccc1)Oc1ccccc1,inactive: -0.966%
3,CCN(CC)C(=S)SC(NC=O)C(Cl)(Cl)Cl (centres undefined),inactive: 0.245%
4,O=C(OC1CN2CCC1CC2)c1cccc2[nH]cnc12 (centres undefined),inactive: 1.03%
5,ClCCSc1nnc(-c2cccnc2)o1,inactive: -1.09%
6,COC(=O)C1(C)COP(=O)(N2CCCCCC2)OC1 (centres undefined),inactive: 0.27%
7,CC(C)c1ccc(OP(=O)(Nc2ccccn2)Oc2ccccc2F)cc1 (centres undefined),inactive: -0.32%
8,Cc1ccc(OP(=O)(Nc2ccc([N+](=O)[O-])cn2)Oc2ccc(C)cc2)cc1,inactive: 0.576%
9,Cc1ccc2nc3c(c(C)c2c1)CC(C(Cl)Cl)S3 (centres undefined),inactive: -3.28%
10,O=[N+]([O-])c1ccc(-c2cc([N+](=O)[O-])c(O)c([N+](=O)[O-])c2)cc1,inactive: 0.708%
11,COc1cc(C(=O)NCC2(N3CCOCC3)CCCCC2)ccc1OCC(C)C,inactive: 0.394%
12,O=[As](O)(c1ccc(O)cc1)c1ccccc1O,inactive: 2.86%
13,C[As](=O)(O)c1cccc(C(=O)O)c1,inactive: -0.663%
14,O=[N+]([O-])c1cc(Oc2ccc([N+](=O)[O-])cc2C(F)(F)F)cc([N+](=O)[O-])c1,inactive: 0.577%
15,COc1ccc(N/C(=N/P(=O)(N2CCOCC2)N2CCOCC2)N2CCOCC2)cc1,inactive: -0.264%
16,O=P1(N(CCCl)CCCl)OCCCN1CCCl (centres undefined),inactive: 1.51%
17,O=P1(N(CCCl)CCCl)Nc2ccccc2N1,inactive: 0.657%
18,COc1cc(I)ccc1[As](=O)(O)O,inactive: 0.83%
19,COc1ccc2nc(NP(=O)(c3ccccc3)c3ccccc3)sc2c1,inactive: -0.226%
20,Cc1c2c(nc3ccccc13)SC(C(Cl)Cl)C2 (centres undefined),inactive: 1.55%
21,Cc1cc(=O)[nH]c(N[N+](=O)[O-])n1,inactive: -0.219%
22,O=C(OC1CN2CCC1CC2)C12CC3CC(CC(C3)C1)C2 (centres undefined),inactive: 1.06%

row,Structure (SMILES),inhibition
1,CCC(C)N(CC(C)C)C(=S)SC(NC(C)=O)C(Cl)(Cl)Cl (centres undefined),inactive: 0.175%
2,O=C(OC1CN2CCC1CC2)c1cccc([N+](=O)[O-])c1 (centres undefined),inactive: -0.814%
3,CCOC(=O)c1ccc(NC(=O)C(C)(CCl)SC)cc1 (centres undefined),inactive: -3.49%
4,O=C(Nc1ccncc1[N+](=O)[O-])c1ccc([N+](=O)[O-])cc1[N+](=O)[O-],inactive: 1.31%
5,O=C(COc1ccccc1)OC1CN2CCC1CC2 (centres undefined),inactive: 0.0117%
6,COP1(=S)c2c(C)nn(CCC#N)c2N=C(c2ccc(F)cc2)N1C (centres undefined),inactive: 0.19%
7,O=P(Nc1ccccn1)(c1cccc2ccccc12)c1cccc2ccccc12,inactive: 1.03%
8,Cc1cc(SC(NC=O)C(Cl)(Cl)Cl)ncn1 (centres undefined),inactive: 0.117%
9,O=[N+]([O-])c1ccc(Nc2ccc(Oc3ccc([N+](=O)[O-])cc3[N+](=O)[O-])cc2)c([N+](=O)[O-])c1,inactive: 0.4%
10,CCOC(=O)Nc1cccc([As](=O)(O)O)c1,inactive: 3.19%
11,Cc1cc(SC(NC(=O)c2ccccc2)C(Cl)(Cl)Cl)nc(C(C)C)n1 (centres undefined),inactive: 0.729%
12,CCCCOc1ccc(C(=O)NCC2(N3CCCCC3)CCCCC2)cc1OC,inactive: -2.36%
13,CCOC(=O)Nc1ccc([As](=O)(O)O)c(O)c1,inactive: -0.842%
14,CC1CCNP(=O)(N(CCCl)CCCl)O1 (centres undefined),inactive: -0.0847%
15,Nc1cccc([As](=O)(O)c2ccccc2)c1,inactive: -0.218%
16,Cc1ccc(OCC(=O)OC2CN3CCC2CC3)cc1 (centres undefined),inactive: 0.112%
17,O=[As](O)(c1cccs1)c1cccs1,inactive: 0.172%
18,O=P1(Nc2ccc(Br)cn2)COc2ccccc2OC1,inactive: -1.18%
19,NS(=O)(=O)c1cccc(NC(=O)COC(=O)C(O)(c2ccccc2)c2ccccc2)c1,inactive: 0.161%
20,O=P1(Nc2ncccn2)COc2ccccc2OC1,inactive: 1.52%
21,CN(C)C1(CNC(=O)c2ccc(S(C)(=O)=O)cc2)CCCCC1,inactive: 0.612%
22,CCCC1OP(=O)(Nc2ccccc2)OCC1CC (centres undefined),inactive: 1.32%

row,Structure (SMILES),inhibition
1,O=C(/C=C/c1ccccc1)OC1CN2CCC1CC2 (centres undefined),inactive: -0.849%
2,CC1CCC(C(C)C)C(OP(=O)(Nc2ccccn2)c2ccccc2)C1 (centres undefined),inactive: 1.1%
3,Cc1ccc(C(=O)OC2CN3CCC2CC3)cc1 (centres undefined),inactive: 0.842%
4,Cc1nn(-c2ccccc2)c2c1P(=O)(N1CCOCC1)N(C)C(c1ccccc1)=N2 (centres undefined),inactive: 0.11%
5,CC(C)/C=N\N=C(\N)N[N+](=O)[O-],inactive: -6.93%
6,CN(C(=O)Cc1ccc(Cl)c(Cl)c1)[C@@H]1CCCC[C@H]1N1CCCC1,inactive: -1.52%
7,CC1(CBr)Cn2c(nc3ccccc3c2=O)S1 (centres undefined),inactive: 0.132%
8,COc1ccccc1CNC(=O)COC(=O)C(O)(c1ccccc1)c1ccccc1,inactive: 0.0123%
9,CC(C)(C)C(=O)NC(Sc1ncccn1)C(Cl)(Cl)Cl (centres undefined),inactive: 1.9%
10,Clc1n[nH]nc1-c1nn[nH][15n]1,inactive: -1.12%
11,CCOP(=O)(NC(=NC(C)c1ccccc1)NC(C)c1ccccc1)OCC (centres undefined),inactive: 0.257%
12,O=P1(Nc2ccccn2)COc2ccccc2OC1,inactive: -0.954%
13,CCC1=CC2Cc3nc4ccc(Cl)cc4c(N)c3C(C1)C2 (centres undefined),inactive: 2.47%
14,CCOP(=O)(Nc1ccc(C)cn1)OCC,inactive: 0.381%
15,CCOP(=O)(Nc1cccc2ccccc12)OCC,inactive: -0.401%
16,COc1cc(C2NCCC3(OCCO3)C2(C)C)cc(OC)c1OC (centres undefined),inactive: -6.26%
17,Cc1ccc(NCCc2c([N+](=O)[O-])cc([N+](=O)[O-])cc2[N+](=O)[O-])cc1,inactive: -4.81%
18,Nc1cccc2c([As](=O)(O)O)cccc12,inactive: -0.269%
19,CCCOP(=S)(Nc1nc(N)cc(=O)[nH]1)OCCC,inactive: -2.32%
20,Cc1cccc(OCC(=O)OC2CN3CCC2CC3)c1 (centres undefined),inactive: 2.56%
